Sequences of proteins named here, by UniProt entry; tags and fusion partners are left off.
UniProt O67625, whole entry: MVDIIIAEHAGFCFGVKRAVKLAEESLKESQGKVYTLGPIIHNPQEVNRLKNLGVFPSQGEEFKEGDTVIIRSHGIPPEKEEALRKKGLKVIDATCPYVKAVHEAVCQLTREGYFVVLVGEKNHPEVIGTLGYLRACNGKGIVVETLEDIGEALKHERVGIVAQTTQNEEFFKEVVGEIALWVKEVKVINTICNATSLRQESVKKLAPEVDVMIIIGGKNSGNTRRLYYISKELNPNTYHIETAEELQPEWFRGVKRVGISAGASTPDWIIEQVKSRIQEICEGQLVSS

In patent publication US8609638B2, “Enzyme inhibiting compounds and methods” (priority 2009, dated 2013):

target: IspH (LytB), E-4-hydroxy-3-methyl-but-2-enyl diphosphate reductase (Aquifex aeolicus, UniProt O67625); conditions: IspH inhibition; Ki deduced from IC50 by Cheng-Prusoff equation

With `O=P(O)(O)OP(=O)(O)OCc1cccnc1` as the compound, how does the Ki read?
Its Ki is 3.2 µM.

How did the Ki turn out when `O=P(O)(O)C(CCCCS)P(=O)(O)O` was run?
The Ki was 89 µM.

How did the Ki turn out when `Cc1ccnc(NC(P(=O)(O)O)P(=O)(O)O)c1` was run?
Its Ki is 14 µM.

With `O=P(O)(O)OP(=O)(O)OCCC1CO1` (stereo not shown) as the compound, how does the Ki read?
Its Ki is 66 µM.
